This is an account of results in PMC10349072, “Distinct evolution of type I glutamine synthetase in Plasmodium and its species-specific requirement” (Nature Communications, 2023).

The assay deals with T1, Plasmodium falciparum glutamine synthetase (rPfGS) (Plasmodium falciparum, UniProt C0H551).
T1 construct: gene PF3D7_0922600
T1 sequence (C0H551 1-543): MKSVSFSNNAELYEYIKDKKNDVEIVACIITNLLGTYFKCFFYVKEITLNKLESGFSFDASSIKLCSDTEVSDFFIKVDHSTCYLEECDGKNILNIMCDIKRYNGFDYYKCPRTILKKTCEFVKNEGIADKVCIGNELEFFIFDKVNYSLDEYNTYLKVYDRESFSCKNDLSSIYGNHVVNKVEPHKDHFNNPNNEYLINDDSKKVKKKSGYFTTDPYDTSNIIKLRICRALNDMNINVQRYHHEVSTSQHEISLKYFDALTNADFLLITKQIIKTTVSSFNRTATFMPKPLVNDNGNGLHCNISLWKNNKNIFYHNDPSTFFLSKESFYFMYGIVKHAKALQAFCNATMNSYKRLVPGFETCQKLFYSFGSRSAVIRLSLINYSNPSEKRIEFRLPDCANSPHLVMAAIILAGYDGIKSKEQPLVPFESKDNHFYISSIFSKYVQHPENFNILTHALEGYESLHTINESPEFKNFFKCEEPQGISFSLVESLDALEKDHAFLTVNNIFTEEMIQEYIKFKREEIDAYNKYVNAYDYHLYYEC
Kind of assay: biochemical.

`CS(=N)(=O)CC[C@H](N)C(=O)O` (stereo partly drawn) [MSO, L-Methionine sulfoximine] yielded a Ki of 5.64 ± 0.39 µM.

What is called Ki is a dissociation constant, usually derived from enzyme kinetics or from competition with a known ligand.
